# Laboratory results as given in US20140100156A1 (SANOFI, priority 2012, published 2014).
# Chains of the proteins cited; added tags and fusions are not shown. Residues count along the entry.
# UniProt P43220, 24-463: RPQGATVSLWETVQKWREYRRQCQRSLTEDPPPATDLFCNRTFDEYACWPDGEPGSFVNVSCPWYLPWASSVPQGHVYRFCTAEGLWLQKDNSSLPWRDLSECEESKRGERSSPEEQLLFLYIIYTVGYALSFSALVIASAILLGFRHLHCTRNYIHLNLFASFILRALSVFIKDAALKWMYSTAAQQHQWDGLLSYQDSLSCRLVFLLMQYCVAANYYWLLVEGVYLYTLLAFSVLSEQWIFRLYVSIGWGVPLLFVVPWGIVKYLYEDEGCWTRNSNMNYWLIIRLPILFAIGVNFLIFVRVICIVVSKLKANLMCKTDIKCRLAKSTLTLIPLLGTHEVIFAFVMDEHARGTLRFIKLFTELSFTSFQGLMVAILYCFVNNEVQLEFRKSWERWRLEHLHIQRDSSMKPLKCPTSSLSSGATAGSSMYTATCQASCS
# UniProt P47871, 26-477: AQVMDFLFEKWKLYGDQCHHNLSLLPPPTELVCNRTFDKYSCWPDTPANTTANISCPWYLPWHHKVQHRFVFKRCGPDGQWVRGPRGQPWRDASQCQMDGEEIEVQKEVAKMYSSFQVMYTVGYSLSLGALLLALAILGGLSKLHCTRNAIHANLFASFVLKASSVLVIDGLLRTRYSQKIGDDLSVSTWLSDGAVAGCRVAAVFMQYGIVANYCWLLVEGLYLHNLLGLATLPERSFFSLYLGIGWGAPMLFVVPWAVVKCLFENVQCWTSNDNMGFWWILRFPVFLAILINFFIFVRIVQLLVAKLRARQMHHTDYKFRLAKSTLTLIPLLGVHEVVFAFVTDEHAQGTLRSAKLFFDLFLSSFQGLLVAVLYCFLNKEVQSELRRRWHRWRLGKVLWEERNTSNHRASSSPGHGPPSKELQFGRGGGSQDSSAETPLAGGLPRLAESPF
# Experiments:
# human GLP-1 receptor = target: T1, human GLP-1 receptor (Homo sapiens, UniProt P43220); assay: cAMP response (HTRF) of HEK-293 cells stably expressing human GLP-1 receptor; type: cell-based; conditions: Table 5; cAMP, HEK-293; read-out: EC50 hGLP-1R
# T1 construct: expressed in transfected cells; host or cells: HEK-293
# human glucagon receptor = target: T2, human glucagon receptor (Homo sapiens, UniProt P47871); assay: cAMP response (HTRF) of HEK-293 cells stably expressing human glucagon receptor; type: cell-based; conditions: Table 5; cAMP, HEK-293; read-out: EC50 hGlucagon-R
# T2 construct: expressed in transfected cells; host or cells: HEK-293
Compound,EC50 (human GLP-1 receptor),EC50 (human glucagon receptor)
CCCCCCCCCCCCCCCC(=O)N[C@@H](CCC(=O)NCCCC[C@H](NC(=O)[C@H](CCC(N)=O)NC(=O)[C@H](CCCCN)NC(=O)[C@H](CO)NC(=O)[C@H](CC(C)C)NC(=O)[C@H](CC(=O)O)NC(=O)[C@H](CO)NC(=O)[C@@H](NC(=O)[C@H](Cc1ccccc1)NC(=O)[C@@H](NC(=O)CNC(=O)[C@H](CCC(N)=O)NC(=O)C(C)(C)NC(=O)[C@@H](N)Cc1c[nH]cn1)[C@@H](C)O)[C@@H](C)O)C(=O)N[C@@H](CCC(=O)O)C(=O)N[C@@H](CO)C(=O)N[C@@H](CCC(N)=O)C(=O)N[C@@H](C)C(=O)N[C@@H](C)C(=O)N[C@@H](CCC(N)=O)C(=O)N[C@@H](CCC(=O)O)C(=O)N[C@@H](Cc1ccccc1)C(=O)N[C@H](C(=O)N[C@@H](CCC(=O)O)C(=O)N[C@@H](Cc1c[nH]c2ccccc12)C(=O)N[C@@H](CC(C)C)C(=O)N[C@@H](CCCCN)C(=O)N[C@@H](C)C(=O)NCC(=O)NCC(=O)N1CCC[C@H]1C(=O)N[C@@H](CO)C(=O)N[C@@H](CO)C(=O)NCC(=O)N[C@@H](C)C(=O)N1CCC[C@H]1C(=O)N1CCC[C@H]1C(=O)N1CCC[C@H]1C(=O)N[C@@H](CO)C(N)=O)[C@@H](C)CC)C(=O)O [compound 38],2.9 pM,53.1 pM
CCCCCCCCCCCCCCCC(=O)N[C@@H](CCC(=O)NCCCC[C@H](NC(=O)[C@H](CCC(N)=O)NC(=O)[C@H](CCCCN)NC(=O)[C@H](CO)NC(=O)[C@H](CC(C)C)NC(=O)[C@H](CC(=O)O)NC(=O)[C@H](CO)NC(=O)[C@@H](NC(=O)[C@H](Cc1ccccc1)NC(=O)[C@@H](NC(=O)CNC(=O)[C@H](CCC(N)=O)NC(=O)[C@@H](CO)NC(=O)[C@@H](N)Cc1c[nH]cn1)[C@@H](C)O)[C@@H](C)O)C(=O)N[C@@H](CC(=O)O)C(=O)N[C@@H](CO)C(=O)N[C@@H](CCC(N)=O)C(=O)N[C@@H](C)C(=O)N[C@@H](C)C(=O)N[C@@H](CCC(N)=O)C(=O)N[C@@H](CC(=O)O)C(=O)N[C@@H](Cc1ccccc1)C(=O)N[C@H](C(=O)N[C@@H](CCC(=O)O)C(=O)N[C@@H](Cc1c[nH]c2ccccc12)C(=O)N[C@@H](CC(C)C)C(=O)N[C@@H](CCCCN)C(=O)N[C@@H](C)C(=O)NCC(=O)NCC(=O)N1CCC[C@H]1C(=O)N[C@@H](CO)C(=O)N[C@@H](CO)C(=O)NCC(=O)N[C@@H](C)C(=O)N1CCC[C@H]1C(=O)N1CCC[C@H]1C(=O)N1CCC[C@H]1C(=O)N[C@@H](CO)C(N)=O)[C@@H](C)CC)C(=O)O [compound 39],2.7 pM,7.6 pM
CCCCCCCCCCCCCCCCCC(=O)N[C@@H](CCC(=O)NCCCC[C@H](NC(=O)[C@H](CCC(N)=O)NC(=O)[C@H](CCCCN)NC(=O)[C@H](CO)NC(=O)[C@H](CC(C)C)NC(=O)[C@H](CC(=O)O)NC(=O)[C@H](CO)NC(=O)[C@@H](NC(=O)[C@H](Cc1ccccc1)NC(=O)[C@@H](NC(=O)CNC(=O)[C@H](CCC(N)=O)NC(=O)[C@@H](CO)NC(=O)[C@@H](N)Cc1c[nH]cn1)[C@@H](C)O)[C@@H](C)O)C(=O)N[C@@H](CCC(=O)O)C(=O)N[C@@H](CO)C(=O)N[C@@H](CCC(N)=O)C(=O)N[C@@H](C)C(=O)N[C@@H](C)C(=O)N[C@@H](CCC(N)=O)C(=O)N[C@@H](CC(=O)O)C(=O)N[C@@H](Cc1ccccc1)C(=O)N[C@H](C(=O)N[C@@H](CCC(=O)O)C(=O)N[C@@H](Cc1c[nH]c2ccccc12)C(=O)N[C@@H](CC(C)C)C(=O)N[C@@H](CCCCN)C(=O)N[C@@H](C)C(=O)NCC(=O)NCC(=O)N1CCC[C@H]1C(=O)N[C@@H](CO)C(=O)N[C@@H](CO)C(=O)NCC(=O)N[C@@H](C)C(=O)N1CCC[C@H]1C(=O)N1CCC[C@H]1C(=O)N1CCC[C@H]1C(=O)N[C@@H](CO)C(N)=O)[C@@H](C)CC)C(=O)O [compound 40],2.6 pM,4.8 pM
CCCCCCCCCCCCCCCCCC(=O)N[C@@H](CCC(=O)NCCCC[C@H](NC(=O)[C@H](CCC(N)=O)NC(=O)[C@H](CCCCN)NC(=O)[C@H](CO)NC(=O)[C@H](CC(C)C)NC(=O)[C@H](CC(=O)O)NC(=O)[C@H](CO)NC(=O)[C@@H](NC(=O)[C@H](Cc1ccccc1)NC(=O)[C@@H](NC(=O)CNC(=O)[C@H](CCC(N)=O)NC(=O)C(C)(C)NC(=O)[C@@H](N)Cc1c[nH]cn1)[C@@H](C)O)[C@@H](C)O)C(=O)N[C@@H](CCC(=O)O)C(=O)N[C@@H](CO)C(=O)N[C@@H](CCC(N)=O)C(=O)N[C@@H](C)C(=O)N[C@@H](C)C(=O)N[C@@H](CCC(N)=O)C(=O)N[C@@H](CC(=O)O)C(=O)N[C@@H](Cc1ccccc1)C(=O)N[C@H](C(=O)N[C@@H](CCC(=O)O)C(=O)N[C@@H](Cc1c[nH]c2ccccc12)C(=O)N[C@@H](CC(C)C)C(=O)N[C@@H](CCCCN)C(=O)N[C@@H](C)C(=O)NCC(=O)NCC(=O)N1CCC[C@H]1C(=O)N[C@@H](CO)C(=O)N[C@@H](CO)C(=O)NCC(=O)N[C@@H](C)C(=O)N1CCC[C@H]1C(=O)N1CCC[C@H]1C(=O)N1CCC[C@H]1C(=O)N[C@@H](CO)C(N)=O)[C@@H](C)CC)C(=O)O [compound 41],3.3 pM,20.7 pM
CCCCCCCCCCCCCCCC(=O)NCCCC[C@H](NC(=O)[C@H](CCC(N)=O)NC(=O)[C@H](CCCCN)NC(=O)[C@H](CO)NC(=O)[C@H](CC(C)C)NC(=O)[C@H](CC(=O)O)NC(=O)[C@H](CO)NC(=O)[C@@H](NC(=O)[C@H](Cc1ccccc1)NC(=O)[C@@H](NC(=O)CNC(=O)[C@H](CCC(N)=O)NC(=O)[C@@H](CO)NC(=O)[C@@H](N)Cc1c[nH]cn1)[C@@H](C)O)[C@@H](C)O)C(=O)N[C@@H](CCC(=O)O)C(=O)N[C@@H](CO)C(=O)N[C@@H](CCC(N)=O)C(=O)N[C@@H](C)C(=O)N[C@@H](C)C(=O)N[C@@H](CCC(N)=O)C(=O)N[C@@H](CC(=O)O)C(=O)N[C@@H](Cc1ccccc1)C(=O)N[C@H](C(=O)N[C@@H](CCC(=O)O)C(=O)N[C@@H](Cc1c[nH]c2ccccc12)C(=O)N[C@@H](CC(C)C)C(=O)N[C@@H](CCCCN)C(=O)N[C@@H](C)C(=O)NCC(=O)NCC(=O)N1CCC[C@H]1C(=O)N[C@@H](CO)C(=O)N[C@@H](CO)C(=O)NCC(=O)N[C@@H](C)C(=O)N1CCC[C@H]1C(=O)N1CCC[C@H]1C(=O)N1CCC[C@H]1C(=O)N[C@@H](CO)C(N)=O)[C@@H](C)CC [compound 42],10.2 pM,199 pM
CCCCCCCCCCCCCCCC(=O)NCCCC[C@H](NC(=O)[C@H](CCC(N)=O)NC(=O)[C@H](CCCCN)NC(=O)[C@H](CO)NC(=O)[C@H](CC(C)C)NC(=O)[C@H](CC(=O)O)NC(=O)[C@H](CO)NC(=O)[C@@H](NC(=O)[C@H](Cc1ccccc1)NC(=O)[C@@H](NC(=O)CNC(=O)[C@H](CCC(N)=O)NC(=O)C(C)(C)NC(=O)[C@@H](N)Cc1c[nH]cn1)[C@@H](C)O)[C@@H](C)O)C(=O)N[C@@H](CCC(=O)O)C(=O)N[C@@H](CO)C(=O)N[C@@H](CCC(N)=O)C(=O)N[C@@H](C)C(=O)N[C@@H](C)C(=O)N[C@@H](CCC(N)=O)C(=O)N[C@@H](CC(=O)O)C(=O)N[C@@H](Cc1ccccc1)C(=O)N[C@H](C(=O)N[C@@H](CCC(=O)O)C(=O)N[C@@H](Cc1c[nH]c2ccccc12)C(=O)N[C@@H](CC(C)C)C(=O)N[C@@H](CCCCN)C(=O)N[C@@H](C)C(=O)NCC(=O)NCC(=O)N1CCC[C@H]1C(=O)N[C@@H](CO)C(=O)N[C@@H](CO)C(=O)NCC(=O)N[C@@H](C)C(=O)N1CCC[C@H]1C(=O)N1CCC[C@H]1C(=O)N1CCC[C@H]1C(=O)N[C@@H](CO)C(N)=O)[C@@H](C)CC [compound 43],4.1 pM,443 pM
CCCCCCCCCCCCCCCCCC(=O)N[C@@H](CCC(=O)NCCCC[C@H](NC(=O)[C@H](CCC(N)=O)NC(=O)[C@H](CCCCN)NC(=O)[C@H](CO)NC(=O)[C@H](CC(C)C)NC(=O)[C@H](CC(=O)O)NC(=O)[C@H](CO)NC(=O)[C@@H](NC(=O)[C@H](Cc1ccccc1)NC(=O)[C@@H](NC(=O)CNC(=O)[C@H](CCC(N)=O)NC(=O)[C@@H](CO)NC(=O)[C@@H](N)Cc1c[nH]cn1)[C@@H](C)O)[C@@H](C)O)C(=O)N[C@@H](CCC(=O)O)C(=O)N[C@@H](CO)C(=O)N[C@@H](CCCNC(=N)N)C(=O)N[C@@H](C)C(=O)N[C@@H](C)C(=O)N[C@@H](CCC(N)=O)C(=O)N[C@@H](CC(C)C)C(=O)N[C@@H](Cc1ccccc1)C(=O)N[C@H](C(=O)N[C@@H](CCC(=O)O)C(=O)N[C@@H](Cc1c[nH]c2ccccc12)C(=O)N[C@@H](CC(C)C)C(=O)N[C@@H](CCCCN)C(=O)N[C@@H](C)C(=O)NCC(=O)NCC(=O)N1CCC[C@H]1C(=O)N[C@@H](CO)C(=O)N[C@@H](CO)C(=O)NCC(=O)N[C@@H](C)C(=O)N1CCC[C@H]1C(=O)N1CCC[C@H]1C(=O)N1CCC[C@H]1C(=O)N[C@@H](CO)C(N)=O)[C@@H](C)CC)C(=O)O [compound 45],7.5 pM,19.9 pM
CCCCCCCCCCCCCCCC(=O)N[C@@H](CCC(=O)NCCCC[C@H](NC(=O)[C@H](CCC(N)=O)NC(=O)[C@H](CCCCN)NC(=O)[C@H](CO)NC(=O)[C@H](CC(C)C)NC(=O)[C@H](CC(=O)O)NC(=O)[C@H](CO)NC(=O)[C@@H](NC(=O)[C@H](Cc1ccccc1)NC(=O)[C@@H](NC(=O)CNC(=O)[C@H](CCC(N)=O)NC(=O)[C@@H](CO)NC(=O)[C@@H](N)Cc1c[nH]cn1)[C@@H](C)O)[C@@H](C)O)C(=O)N[C@@H](CCC(=O)O)C(=O)N[C@@H](CO)C(=O)N[C@@H](CCCNC(=N)N)C(=O)N[C@@H](C)C(=O)N[C@@H](C)C(=O)NC(C)(C)C(=O)N[C@@H](CC(C)C)C(=O)N[C@@H](Cc1ccccc1)C(=O)N[C@H](C(=O)N[C@@H](CCC(=O)O)C(=O)N[C@@H](Cc1c[nH]c2ccccc12)C(=O)N[C@@H](CC(C)C)C(=O)N[C@@H](CCCCN)C(=O)N[C@@H](C)C(=O)NCC(=O)NCC(=O)N1CCC[C@H]1C(=O)N[C@@H](CO)C(=O)N[C@@H](CO)C(=O)NCC(=O)N[C@@H](C)C(=O)N1CCC[C@H]1C(=O)N1CCC[C@H]1C(=O)N1CCC[C@H]1C(=O)N[C@@H](CO)C(N)=O)[C@@H](C)CC)C(=O)O [compound 46],3.2 pM,25.1 pM
